Measured values taken from patent publication US9238656B2, “Imidazo[4,5-b]pyridine derivatives as ALK and JAK modulators for the treatment of proliferative disorders” (priority 2012, dated 2016).

By UniProt entry, the sequences of proteins in these tests, tags left out. Where a name states a change or a piece, a line headed by the entry shows the natural chain unless it says otherwise.
UniProt O60674: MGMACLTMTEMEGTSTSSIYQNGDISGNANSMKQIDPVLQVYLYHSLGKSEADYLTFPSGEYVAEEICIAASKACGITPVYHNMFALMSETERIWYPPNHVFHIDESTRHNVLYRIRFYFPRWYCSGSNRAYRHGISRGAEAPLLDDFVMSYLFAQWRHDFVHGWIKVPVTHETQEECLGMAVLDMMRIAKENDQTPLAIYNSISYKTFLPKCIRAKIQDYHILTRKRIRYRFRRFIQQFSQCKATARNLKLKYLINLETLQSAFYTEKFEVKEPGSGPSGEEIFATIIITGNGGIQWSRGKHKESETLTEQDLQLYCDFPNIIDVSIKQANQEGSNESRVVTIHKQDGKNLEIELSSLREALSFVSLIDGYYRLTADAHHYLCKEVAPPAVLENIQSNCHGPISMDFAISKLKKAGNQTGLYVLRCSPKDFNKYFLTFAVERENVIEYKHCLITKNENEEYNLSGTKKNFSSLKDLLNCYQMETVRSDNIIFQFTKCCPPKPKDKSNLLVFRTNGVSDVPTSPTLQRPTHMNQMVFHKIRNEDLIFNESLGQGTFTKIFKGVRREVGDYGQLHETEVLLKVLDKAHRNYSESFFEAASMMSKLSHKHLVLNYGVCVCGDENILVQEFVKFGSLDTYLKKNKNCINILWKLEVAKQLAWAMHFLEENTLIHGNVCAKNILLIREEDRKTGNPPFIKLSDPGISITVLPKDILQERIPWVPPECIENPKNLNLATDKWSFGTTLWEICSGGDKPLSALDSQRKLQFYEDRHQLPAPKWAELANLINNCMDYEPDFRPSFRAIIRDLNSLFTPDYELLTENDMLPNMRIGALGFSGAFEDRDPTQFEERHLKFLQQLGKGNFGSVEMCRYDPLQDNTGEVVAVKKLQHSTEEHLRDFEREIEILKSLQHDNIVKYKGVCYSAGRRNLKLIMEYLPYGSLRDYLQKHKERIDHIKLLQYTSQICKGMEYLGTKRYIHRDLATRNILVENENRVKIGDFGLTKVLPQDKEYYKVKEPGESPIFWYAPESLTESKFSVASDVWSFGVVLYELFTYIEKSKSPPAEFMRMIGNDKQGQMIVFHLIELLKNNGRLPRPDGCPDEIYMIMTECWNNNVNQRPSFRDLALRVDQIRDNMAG

Target: baculovirus-expressed JAK2 kinase (Homo sapiens, UniProt O60674)
Assay: biochemical
Conditions: JAK2 Potency
Protocol: Compounds were tested for their ability to inhibit the kinase activity of baculovirus-expressed JAK2 kinase using the time-resolved fluorescence (TRF) detection system. […] The plates were coated with 100 μL/well of 10 μg/mL Neutravidin (Pierce #31000, Rockford, Ill.) in TBS at 37° C. for 2 h, followed by 100 μL/well of 1 μg/mL 15-mer peptide substrate (biotinyl-amino-hexanoyl-[…]-amide, Infinity Biotech Research and Resource, Aston, Pa.) at 37° C. for 1 h. […] Enzyme (15 ng/mL JAK2) was added and the reaction was allowed to proceed at room temperature for 20 min. […] Inhibition data were analyzed using ActivityBase (IDBS, Guilford, UK). IC50 values were calculated by plotting percent inhibition versus log10 of the concentration of compound and fitting to the nonlinear regression sigmoidal dose-response (variable slope) equation in XLFit (IDBS, Guilford, UK).

COc1cc(CN2CCCC2)ccc1-c1nc2c(N[C@H]3[C@@H](C(N)=O)[C@@H]4C=C[C@H]3C4)c(Cl)cnc2[nH]1 [Compound XLI]
IC50: < 100 nM
